Tested on: iMPCCs (iHep micropatterned co-cultures)
Settings: human, 6 days

## CN1CCN(C2=Nc3cc(Cl)ccc3Nc3ccccc32)CC1 [Clozapine]
  TC50 in iMPCCs, ATP: 57.9 µM

— patent US10717966B2, “Stem cell-derived hepatocytes in co-culture and uses thereof” (Colorado State University Research Foundation, priority 2014, dated 2020)
